Reference: ChEMBL document CHEMBL5512679, “In Silico Assisted Identification, Synthesis, and In Vitro Pharmacological Characterization of Potent and Selective Blockers of the Epilepsy-Associated KCNT1 Channel” (J Med Chem, 2024)
Calls of active or inactive are those of the source. No cut-off for these calls is given here.

Chains of the proteins cited; added tags and fusions are not shown.
UniProt O43526, whole entry: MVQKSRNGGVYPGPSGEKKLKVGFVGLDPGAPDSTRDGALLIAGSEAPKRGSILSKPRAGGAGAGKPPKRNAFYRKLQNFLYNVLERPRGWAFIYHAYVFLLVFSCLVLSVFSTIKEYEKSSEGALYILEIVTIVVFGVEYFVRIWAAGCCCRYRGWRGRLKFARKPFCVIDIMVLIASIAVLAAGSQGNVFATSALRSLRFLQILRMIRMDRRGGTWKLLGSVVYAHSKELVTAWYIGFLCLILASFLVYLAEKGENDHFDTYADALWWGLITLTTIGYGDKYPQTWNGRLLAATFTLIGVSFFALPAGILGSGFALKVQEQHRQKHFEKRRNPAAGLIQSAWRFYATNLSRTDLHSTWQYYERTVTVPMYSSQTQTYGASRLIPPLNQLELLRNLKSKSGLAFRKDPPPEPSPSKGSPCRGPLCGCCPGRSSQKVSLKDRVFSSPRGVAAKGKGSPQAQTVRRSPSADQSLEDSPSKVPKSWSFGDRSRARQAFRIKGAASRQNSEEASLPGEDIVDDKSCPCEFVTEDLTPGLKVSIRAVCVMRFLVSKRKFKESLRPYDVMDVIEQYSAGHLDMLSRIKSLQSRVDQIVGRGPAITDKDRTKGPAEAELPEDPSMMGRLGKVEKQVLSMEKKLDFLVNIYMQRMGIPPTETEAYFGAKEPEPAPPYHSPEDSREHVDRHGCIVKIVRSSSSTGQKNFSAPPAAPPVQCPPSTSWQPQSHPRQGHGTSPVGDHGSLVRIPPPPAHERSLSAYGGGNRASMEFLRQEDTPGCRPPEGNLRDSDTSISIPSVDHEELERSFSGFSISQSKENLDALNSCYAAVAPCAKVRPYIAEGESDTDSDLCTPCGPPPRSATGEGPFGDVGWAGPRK

How the values were obtained:
[1] = target: Potassium voltage-gated channel subfamily KQT member 2 (Homo sapiens) (UniProt O43526); assay: Inhibition of human Kv7.2 transiently transfected in CHO cells at 10 uM at -100 mV holding potential by whole-cell patch clamp electrophysiology method; type: cell-based
[2] = target: Potassium voltage-gated channel subfamily KQT member 2 (Homo sapiens) (UniProt O43526); assay: Activation of human Kv7.2 transiently transfected in CHO cells at 10 uM under -100 mV holding potential by whole-cell patch clamp electrophysiology method; type: cell-based

| inhibition [1] | Activity [2] [%] | SMILES |
| --- | --- | --- |
| Active | – | CCOC(=O)[C@@H]1CS[C@@]2(C(=O)Nc3ccc(Br)cc32)N1C(=O)c1ccc(Cl)cc1 |
| – | 10 | O=S(=O)(Nc1ccc2c(c1)CCN2Cc1ccc(C(F)(F)F)cc1C(F)(F)F)C1CCCCC1 |
| Active | – | O=C(NCc1ccccc1)[C@H](Cc1c[nH]c2ccccc12)NCc1ccc(Oc2ccccc2)cc1 |
